AlphaSeq binding of Ab-14 light chain variants to a spike HR2 peptide

The measurements come from Engelhart et al. 2022 (doi:10.1038/s41597-022-01779-4) through the FLAb antibody collection.

Target: peptide PDVDLGDISGINAS, taken from heptad repeat 2 (HR2) of SARS-CoV-2 spike.

Parent scFv Ab-14: VH joined to VL by three GGGGS repeats. Changes lie in the light chain CDRs alone.
VH: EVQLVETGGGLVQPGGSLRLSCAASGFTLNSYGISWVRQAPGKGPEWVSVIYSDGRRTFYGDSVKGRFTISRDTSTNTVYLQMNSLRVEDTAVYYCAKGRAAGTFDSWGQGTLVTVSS
VL: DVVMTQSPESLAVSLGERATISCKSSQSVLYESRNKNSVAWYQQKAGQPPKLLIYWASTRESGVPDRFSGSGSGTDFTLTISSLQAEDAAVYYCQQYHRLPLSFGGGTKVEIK

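The library (AAYL50) carries one to three amino acid substitutions per variant, with no insertions or deletions. AlphaSeq pools MATa yeast showing the antibodies with MATalpha yeast showing the peptide. The frequency of each diploid, read from paired DNA barcodes, reflects how well the two displayed proteins bind. The ratio of observed to expected reads was calibrated, replicate by replicate, on BCL2-family standards whose Kd was known from biolayer interferometry. Each pool was mated in three replicate cultures.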

Positions count from residue 1 of the parent VL; S26T puts T in place of S.
Scale: log10 of Kd in nM, estimated from mating counts; low values are strong binders.
A mean of the replicates is given; it leaves out those without a signal.
"nd" marks a missing value. The strain was present, yet no cells mated with the target were sequenced in any replicate, which points to weak or no binding.

The variant S26T+A57C+Q95C gave 4.14 (1 of 3 replicates).
The variant K36C+N37L+T59V gave 1.89 (3 of 3 replicates).
The variant L30A+Q95L+R99T gave 3.21 (3 of 3 replicates).
The variant Q27R+R34G+V39K gave nd (0 of 3 replicates).
The variant K24I+S26Y+W56V gave 5.12 (2 of 3 replicates).
The variant S26M+V39I+A57K gave nd (0 of 3 replicates).
The variant S26C+S28Q+R60C gave nd (0 of 3 replicates).
The variant A40P+T59K+R60M gave 4.25 (1 of 3 replicates).
The variant Q27Y+Y97L+H98D gave 3.30 (3 of 3 replicates).
The variant T59F+Q95K+P101K gave 2.77 (3 of 3 replicates).
The variant S28W+V39T+L102W gave 5.16 (3 of 3 replicates).
The variant A57Y+R60K+H98I gave 4.59 (2 of 3 replicates).
The variant A57T+T59V+P101V gave nd (0 of 3 replicates).
The variant A40W+H98E+L102G gave nd (0 of 3 replicates).
The variant Y31L+H98W gave 1.28 (3 of 3 replicates).
The variant H98P+R99M gave 2.12 (3 of 3 replicates).
The variant Q27T+R34E+R60K gave 0.76 (3 of 3 replicates).
The variant T59N+Q96H+S103M gave 1.02 (3 of 3 replicates).
The variant Y31T+R34L+N37Q gave 0.67 (3 of 3 replicates).
The variant S38A+S62K+S103H gave 2.98 (1 of 3 replicates).
The variant S25Q+R34H+A57L gave nd (0 of 3 replicates).
The variant L30H+A57R+L102W gave nd (0 of 3 replicates).
The variant Q95H+H98F+L102W gave nd (0 of 3 replicates).
The variant L30N+N35H+S58V gave 2.09 (3 of 3 replicates).
The variant Q27K+A57R+R60Q gave 5.06 (2 of 3 replicates).
The variant S33M+W56C+R99S gave 2.69 (3 of 3 replicates).
The variant S28F+L30N+V39C gave nd (0 of 3 replicates).
The variant T59F+Q96G gave 3.91 (1 of 3 replicates).
The variant S25H+Y31F+S38W gave 3.67 (1 of 3 replicates).
The variant Q27M+N37V+S62R gave 3.21 (2 of 3 replicates).
The variant V29Q+R34C gave 1.30 (3 of 3 replicates).
The variant S28D+E32W+Q95Y gave nd (0 of 3 replicates).
The variant R60C+L100R+S103R gave 3.94 (3 of 3 replicates).
The variant N37F+T59L+S103G gave 4.29 (1 of 3 replicates).
The variant S28F+L30Y+W56T gave 1.27 (3 of 3 replicates).
The variant K24C+Q95I+H98W gave nd (0 of 3 replicates).
The variant H98Y+P101H+L102Y gave 1.04 (3 of 3 replicates).
The variant R34F+V39T+R99Y gave nd (0 of 3 replicates).
The variant L30N+Y31K+W56I gave 6.27 (1 of 3 replicates).
The variant S62M+P101F+L102H gave 4.58 (1 of 3 replicates).
The variant V39T+T59H+E61Q gave nd (0 of 3 replicates).
The variant S28G+L30R+S38C gave 3.10 (3 of 3 replicates).
The variant Q27I+W56N gave 0.32 (3 of 3 replicates).
The variant N37E+S58H+H98A gave nd (0 of 3 replicates).
The variant R34H+S38P+P101Q gave nd (0 of 3 replicates).
The variant S25A+V39A+L100A gave nd (0 of 3 replicates).
The variant L30S+E61H+P101W gave 2.06 (3 of 3 replicates).
The variant K24T+E32R+E61Y gave 3.77 (3 of 3 replicates).

The first 8 variants above that were never detected:

{"changes": "Q27R+R34G+V39K", "mean, log10 nM": "nd", "seen in": "0 of 3"}
{"changes": "S26M+V39I+A57K", "mean, log10 nM": "nd", "seen in": "0 of 3"}
{"changes": "S26C+S28Q+R60C", "mean, log10 nM": "nd", "seen in": "0 of 3"}
{"changes": "A57T+T59V+P101V", "mean, log10 nM": "nd", "seen in": "0 of 3"}
{"changes": "A40W+H98E+L102G", "mean, log10 nM": "nd", "seen in": "0 of 3"}
{"changes": "S25Q+R34H+A57L", "mean, log10 nM": "nd", "seen in": "0 of 3"}
{"changes": "L30H+A57R+L102W", "mean, log10 nM": "nd", "seen in": "0 of 3"}
{"changes": "Q95H+H98F+L102W", "mean, log10 nM": "nd", "seen in": "0 of 3"}

In this assay the parent's reference entry averaged 0.65; its copy inside this library read 1.68.
Background: pairings of library AAYL50 with three empty control strains gave a value in 18% of cases (median 4.19, 5th percentile 2.99). Values in that range, when seen in few replicates, are hard to tell from nonspecific mating.